Results as given in ChEMBL document CHEMBL4513216, “Probing the Open Global Health Chemical Diversity Library for Multistage-Active Starting Points for Next-Generation Antimalarials” (ACS Infect Dis, 2020).
Only a part of the results on these compounds is given; other tests are left out.

System: HepG2
Assay: Toxicity liver stage against HepG2, at 10uM
Format: cell-based
Parameters: test concentration 10 uM, cell line HepG2-A16-CD81EGFP
Settings: human, hepg2, 10 µM
Summary of the method: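 Uninfected HepG2-A16-CD81EGFP cells, 3 × 10^3 per well, 1536-well, plated on prespotted compound at 10 μM final, parasite-free screening media added to match infected plates; puromycin 10 μM positive, DMSO 0.5% negative; run in parallel with 48 h PbLuc assay at 37 °C, 5% CO2; viability by CellTiter-Glo luminescence, normalized to controls.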

Structure (SMILES)	INHIBITION
COc1ccccc1NC1CCN(Cc2scnc2C)CC1	-0.847%
COc1ccc(NC2CCN(CCc3ccccc3)CC2)cc1OC	3.88%
COc1ccc(CN2CCC(Nc3ccc(Br)cc3)CC2)cc1OC	-6.72%
CC1(C)CN(C2(CNC(=O)c3c[nH]nn3)CCCCC2)CCO1	13.8%
NC1(CNC(=O)c2cc3ccccc3[nH]2)CCCCC1	1.87%
COc1ccccc1NC1CCN(Cc2ccc(Br)cc2)CC1	-156%
